# Measurements: patent US20230183243A1, “HETEROARYL DERIVATIVES AND PHARMACEUTICAL COMPOSITION COMPRISING SAME AS ACTIVE INGREDIENT” (VORONOI INC., priority 2019, published 2023)
# Chains of the proteins cited; added tags and fusions are not shown.
# UniProt P33981, whole entry: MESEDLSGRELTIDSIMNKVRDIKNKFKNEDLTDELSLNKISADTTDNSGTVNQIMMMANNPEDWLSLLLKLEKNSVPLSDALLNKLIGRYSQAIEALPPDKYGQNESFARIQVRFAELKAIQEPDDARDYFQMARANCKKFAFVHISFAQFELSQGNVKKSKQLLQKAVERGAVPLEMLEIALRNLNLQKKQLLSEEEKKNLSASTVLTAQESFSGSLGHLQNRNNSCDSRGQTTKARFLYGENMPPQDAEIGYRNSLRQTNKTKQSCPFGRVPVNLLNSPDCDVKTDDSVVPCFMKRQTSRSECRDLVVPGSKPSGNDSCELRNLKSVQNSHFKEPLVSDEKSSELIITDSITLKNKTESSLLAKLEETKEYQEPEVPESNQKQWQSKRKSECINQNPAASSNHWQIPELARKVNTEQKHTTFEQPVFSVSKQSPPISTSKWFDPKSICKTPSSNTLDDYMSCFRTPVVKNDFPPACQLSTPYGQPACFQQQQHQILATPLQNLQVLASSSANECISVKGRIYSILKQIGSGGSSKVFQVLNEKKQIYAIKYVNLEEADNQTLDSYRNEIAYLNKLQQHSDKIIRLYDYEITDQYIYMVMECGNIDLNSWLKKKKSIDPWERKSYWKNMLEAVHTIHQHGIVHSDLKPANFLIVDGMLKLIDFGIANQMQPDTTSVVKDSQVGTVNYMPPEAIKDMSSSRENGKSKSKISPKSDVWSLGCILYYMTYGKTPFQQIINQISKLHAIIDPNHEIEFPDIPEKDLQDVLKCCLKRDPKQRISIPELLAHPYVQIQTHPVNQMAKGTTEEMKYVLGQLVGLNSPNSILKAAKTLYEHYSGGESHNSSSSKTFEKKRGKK
# Tests used:
# human TTK = human TTK (Homo sapiens, UniProt P33981); assay: TTK enzyme activity, ADP-Glo kinase assay; conditions: read-out: TTK Activity (IC50); purified human TTK, ATP 10 μM, 25° C., 2 hours
# MDA-MB-231 cells = assay: Inhibition of proliferation of triple-negative breast cancer cells, CellTiter-Glo; conditions: read-out: MDA-MB-231 Activity (GI50); MDA-MB-231, cultured for 5 days
# SHP-77 = assay: Inhibition of proliferation of small cell lung cancer cells, CellTiter-Glo; conditions: read-out: SHP-77 Activity (GI50); SHP-77, cultured for 5 days
# Method: Specifically, the following test was performed to evaluate the inhibitory activity of the compound according to the present invention against the cell proliferation in the SCLC cells.
# To check an inhibitory ability of cell growth in one SCLC cell line, a test was performed as follows. Cells were seeded in 180 μL of a culture broth at a density of 2,000 to 3,000 cells/well in a white clear bottom 96-well plate (Corning) according to the growth ability of each cell, and then cultured for 24 hours under conditions of 5% CO2 and 37° C. Thereafter, the compound was prepared by diluting a 10 mM stock solution three-fold with 100% DMSO at a total of 12 concentrations so that a peak concentration of the compound was in a range of 10 mM to 0.05 μM, and the diluted compound was then diluted in each cell culture medium so that a final concentration of the compound was in a range of 100 μM to 0.5 nM. […] Then, a degree of luminescence (fluorescence) was measured. A degree of inhibition of the cell growth according to the treatment concentration of each of the compounds was calculated based on the fluorescence of the solvent control cells which were not treated with the compound. […]
smiles,measurement,setting,value
COCCNc1nc(Nc2ccc(-c3cnn(C)c3)c3c2OCCO3)nc2[nH]cc(C#N)c12,IC50,human TTK,< 50 nM
same,GI50,MDA-MB-231 cells,< 100 nM
same,GI50,SHP-77,< 100 nM
